These are literature values, as cited in article PMC12067741, “Inhibition of SOD1 trimerization is a novel drug target for ALS disease” (Translational Neurodegeneration, 2025).

The series deals with ALS. The conditions noted are these: cited from earlier work.

As to `Nc1nc2ccc(OC(F)(F)F)cc2s1` [riluzole], the “efficacy on survival rate” value is reported as “no efficacy on survival rate”.
